{"source": "patent EP0348490B1", "about": "“TREATMENT OF TYPE 2 DIABETES MELLITUS” (AMYLIN PHARMACEUTICALS, INC., priority 1988, dated 1995)", "origin": "cited, not measured here", "test_system": "islet B-cells", "details": "cited from earlier work", "data": [{"substance": "CGRP: calcitonin gene related peptide, shown to be a potent inhibitor of glucose stimulated insulin secretion (ACDTATCVTHRLAGLLSRSGGVVKNNFVPTNVGSKAF; Calcitonin gene-related peptide 1; UniProt P06881 83-119, looked up)", "values": [{"measurement": "inhibition of glucose stimulated insulin secretion (literature)", "result": "potent inhibitor"}]}]}
